The list shows a part of the results, in another mix than the full data. Calls of active or inactive are those of the source.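 The calls were made as follows: active = growth inhibition above 25% in both replicates, a cutoff set 3 SD above the mean; inconclusive = above 25% in only one replicate; inactive = the rest.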

The assay can be described thus: OD615 S. cerevisiae growth inhibition, permissive medium, pilot counter-assay, permissive growth control for S. cerevisiae lifespan shortening project (AID 705). The settings on record: OD615, 24 h, at 10 µM, stronger effect = higher value. The essentials: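 Timing: 24 h exposure, 30 °C / Material: Saccharomyces cerevisiae strain carrying genetically modified DeaD replicative-lifespan system / Signal: OD at 615 nm / Compound: 10 µM single dose, 0.25% DMSO / Medium: SC raffinose/galactose permissive medium / Evaluation: reduction in yeast growth (OD615)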
In the case of `Fc1ccccc1NC1CCN(Cc2ccccc2)CC1`, the growth inhibition was inactive: -6%.

The values are drawn from PubChem BioAssay AID705 (SRMLSC, 2007).
